Data: publication PMC8219695 (Nature Communications, 2021)
“And” between values parts separate entries of the source, which are not always exact repeats. Equal entries are not always repeated.

Amino acid sequences for entries named in this document (tags omitted).
UniProt P41143, whole entry: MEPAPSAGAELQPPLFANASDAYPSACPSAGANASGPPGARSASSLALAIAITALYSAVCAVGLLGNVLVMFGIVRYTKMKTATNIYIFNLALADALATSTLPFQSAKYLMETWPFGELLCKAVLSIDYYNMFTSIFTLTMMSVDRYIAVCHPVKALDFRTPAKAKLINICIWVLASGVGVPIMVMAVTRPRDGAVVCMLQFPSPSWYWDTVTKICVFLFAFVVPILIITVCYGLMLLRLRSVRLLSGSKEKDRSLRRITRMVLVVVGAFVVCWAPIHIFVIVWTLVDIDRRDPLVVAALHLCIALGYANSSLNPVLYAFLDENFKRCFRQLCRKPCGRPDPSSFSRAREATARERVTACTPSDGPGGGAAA
UniProt P32300, whole entry: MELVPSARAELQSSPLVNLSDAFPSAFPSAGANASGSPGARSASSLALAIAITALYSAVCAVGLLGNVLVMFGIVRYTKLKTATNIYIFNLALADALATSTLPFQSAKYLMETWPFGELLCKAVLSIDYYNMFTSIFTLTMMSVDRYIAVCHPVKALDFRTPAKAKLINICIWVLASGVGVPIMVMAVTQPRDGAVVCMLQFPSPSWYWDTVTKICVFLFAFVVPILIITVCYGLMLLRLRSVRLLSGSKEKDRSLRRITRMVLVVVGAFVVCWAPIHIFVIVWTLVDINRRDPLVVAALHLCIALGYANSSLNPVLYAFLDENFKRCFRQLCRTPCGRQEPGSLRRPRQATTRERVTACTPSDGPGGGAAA
UniProt P42866, whole entry: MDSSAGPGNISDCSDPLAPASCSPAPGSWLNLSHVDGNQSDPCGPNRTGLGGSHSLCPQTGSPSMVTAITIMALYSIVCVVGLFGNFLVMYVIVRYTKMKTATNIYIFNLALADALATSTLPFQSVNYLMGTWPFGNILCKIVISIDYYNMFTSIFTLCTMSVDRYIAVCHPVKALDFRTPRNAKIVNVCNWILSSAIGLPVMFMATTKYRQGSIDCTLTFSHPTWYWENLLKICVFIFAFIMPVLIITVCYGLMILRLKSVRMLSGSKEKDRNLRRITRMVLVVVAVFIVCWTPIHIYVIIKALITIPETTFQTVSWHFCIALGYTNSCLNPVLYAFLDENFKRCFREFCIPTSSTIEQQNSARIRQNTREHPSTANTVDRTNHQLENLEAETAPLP

How the values were obtained:
Format in all cases: cell-based
[1] = molecular target: hDOR (Homo sapiens, UniProt P41143); assay: CAMYEL BRET cAMP agonist assay at hDOR; details: single replicate values, Supplementary Figure 7A
[2] = molecular target: T1, mDOR (Mus musculus, UniProt P32300); assay: CAMYEL BRET cAMP agonist assay at mDOR; details: single replicate values, Supplementary Figure 7B
T1 construct: expressed in transfected cells

[3] = molecular target: T2, mMOR (Mus musculus, UniProt P42866); assay: BRET-based Nb33 recruitment assay at mMOR; details: read-out: Emax mMOR
T2 construct: signal peptide (heterologous, not specified) (N); expressed in transfected cells; pcDNA3.1(+) construct made in house

CC[C@@H]1CN2CC[C@@]3(O)C(=Nc4cc(Br)cc(OC)c43)[C@@H]2C[C@@H]1/C(=C\OC)C(=O)OC [11-Br-7OH (24), 11-Br-7OH]
Agonist activity of 7OH analogs at hDOR ([1]; Log[drug] (M) -5): 18.4127
Agonist activity of 7OH analogs at hDOR ([1]; Log[drug] (M) -6): 10.7527
Agonist activity of 7OH analogs at hDOR ([1]; Log[drug] (M) -7): 11.4791

CC[C@@H]1CN2CC[C@@]3(O)C(=Nc4cc(Cl)cc(OC)c43)[C@@H]2C[C@@H]1/C(=C\OC)C(=O)OC [11-Cl-7OH (23), 11-Cl-7OH]
Agonist activity of 7OH analogs at mDOR ([2]; Log[drug] (M) -5): 18.4666
Agonist activity of 7OH analogs at mDOR ([2]; Log[drug] (M) -9): 12.8985 and 12.9272
Agonist activity of 7OH analogs at mDOR ([2]; Log[drug] (M) -13): -2.746

CN1CC[C@]23c4c5ccc(O)c4O[C@H]2[C@@H](O)C=C[C@H]3[C@H]1C5 [Morphine, morphine, reference compound]
Emax [3]: ~67%

CC[C@@H]1CN2CC[C@@]3(O)C(=Nc4cccc(OC)c43)[C@@H]2C[C@@H]1/C(=C\OC)C(=O)OC [7OH, 7-Hydroxymitragynine, reference compound]
Agonist activity of 7OH analogs at hDOR ([1]; Log[drug] (M) -10, listed as 7-OH-Mitragynine): 10.8062 and 10.4418
Agonist activity of 7OH analogs at mDOR ([2]; Log[drug] (M) -7, listed as 7-OH-Mitragynine): 18.677
Agonist activity of 7OH analogs at mDOR ([2]; Log[drug] (M) -11, listed as 7-OH-Mitragynine): 16.3155

CC[C@@H]1CN2CC[C@@]3(O)C(=Nc4cc(F)cc(OC)c43)[C@@H]2C[C@@H]1/C(=C\OC)C(=O)OC [11-F-7OH (22), 11-Fluoro-7-hydroxymitragynine]
Agonist activity of 7OH analogs at hDOR ([1]; Log[drug] (M) -9): 11.504
Agonist activity of 7OH analogs at hDOR ([1]; Log[drug] (M) -13): 2.358
Agonist activity of 7OH analogs at mDOR ([2]; Log[drug] (M) -8): 8.2486
